Measured values reported in patent US20170165230A1, “USE OF GSK-3 INHIBITORS OR ACTIVATORS WHICH MODULATE PD-1 OR T-BET EXPRESSION TO MODULATE T CELL IMMUNITY” (priority 2014, published 2017).
Entries after “also recorded” stand apart in the source; their conditions may differ.

Tests used:
CD44 expression = test system: CD44 expression
Description: (§1) The presence of cells was confirmed by using forward scatter height or side scatter height n the form of a dot and contor plots. […] Non-stained cells were used a control.

[1] = test system: PD-1 expression on T-cells; assay: FACS of PD-1 expression induced by mixed lymphocyte reaction (C57Bl/6 + ICR/CD1 spleen T-cells, 60 hours); type: cell-based, mouse
EL4 tumor cells = assay: Intradermal EL4 / EL4-OVA tumor model in OT-1 Tg mice, tumor growth; details: mouse, in vivo
Tbet transcription = assay: qPCR of Tbet transcription in cells from EL4-OVA tumor-bearing OT-1 Tg mice; details: mouse
Method: (§2) Single-strand cDNA was synthesized with an RT-PCR kit (Qiagen, Hilden, Germany) according to the manufacturer's instructions. Reverse transcription was performed using the RNA polymerase chain reaction (PCR) core kit (Applied Biosystems). Relative quantitative real-time PCR used SYBR green technology (Roche) on cDNA generated from the reverse transcription of purified RNA. After preamplification (95° C. for 2 min), the PCRs were amplified for 40 cycles (95° C. for 15 s and 60° C. for 60 s) in a sequence detection system (PE Prism 7000; Perkin-Elmer Applied Biosystems, USA). mRNA expression was normalized against GAPDH expression using the standard curve method.
(§3) EL4 tumor cells taken from the log phase of in vitro growth were pulsed with ova peptide for 1 hr at 37 C before washing and injecting into OT-1 Tg mice (typically 3×10^6 cells). […] Tumors were clearly visible after 1 wk and grew progressively, in an encapsulated fashion. Induced tumors were measured on a daily basis using a vernier caliper (Helmich et al, 2001, J Immunol 166: 6500-6508; Quezada et al, 2010, J Exp Med 207: 637-650). […]

[2] = test system: Tbet (Tbx21) transcription; assay: qPCR of Tbet transcription in OT-1 T-cells stimulated in vitro by OVA peptide/EL4; type: cell-based, mouse
Method: as §2
(§4) Cells were then stained for FACs with APC conjugated anti-PD-1 (CD279) (a, b) or subjected to qPCR (c, d) as described in the Materials and Methods. Reverse transcription was performed using the RNA polymerase chain reaction (PCR). PCRs were amplified for 40 cycles in a sequence detection system. mRNA expression was normalized against GAPDH (Glyceraldehyde 3-phosphate dehydrogenase) expression using the standard curve method.

PD-1 transcription = assay: qPCR of PD-1 transcription in cells from EL4-OVA tumor-bearing OT-1 Tg mice; details: mouse
Method: as §2, §3

[3] = test system: PD-1 expression on OT-1 T-cells; assay: FACS of PD-1 surface expression on OT-1 T-cells stimulated in vitro by OVA peptide presented by EL-4 cells; type: cell-based, mouse
Method: Non-stained cells were used a control.
as §4
T-cells were incubated in the presence or absence of anti-PD-1 and then subjected to FACs or qPCR as described in the Materials and Methods.

CD3 expression = assay: FACS of CD3 expression on OVA-activated OT-1 T-cells; type: cell-based, mouse
Description: as §1

SMILES: O=C1NC(=O)C(c2ccccc2[N+](=O)[O-])=C1Nc1ccc(O)c(Cl)c1 [SB415286, 3-(3-chloro-4-hydroxyphenylamino)-4-(2-nitrophenyl)-1H-pyrrole-2,5-dione]
- CD44 expression (FACS profile) (CD44 expression): unaltered CD44 expression
- PD-1 expression induced in the MLR (FACS) [1]: inhibits PD-1 expression
- tumor growth (EL4 tumor cells): prevented tumor growth at all concentrations of OVA peptide
- tumor growth (tumor diameter) (EL4 tumor cells): tumors were completely eliminated at all OVA concentrations
- tumor growth of EL4 cells in the absence of OVA peptide (EL4 tumor cells): tumor was visible
- Tbet transcription in vivo (qPCR) (Tbet transcription): increased Tbet transcription; also recorded: increased Tbet expression
- Tbet transcription (qPCR) [2]: increased Tbet transcription
- PD-1 transcription in vivo (qPCR) (PD-1 transcription): inhibited PD-1 transcription; also recorded: reduced tumor size and PD-1 transcription to the same extent as anti-PD-1 alone; also recorded: same as the level of PD-1 in the absence of tumor
- PD-1 surface expression (FACS profile) [3]: reduces PD-1 expression
- CD3 expression (FACS profile) (CD3 expression): unaltered CD3 expression
